The conditions of the series: calcitriol 2 μg/kg s.c., 22 hours after administration; solvent control 3.0 mmol/l.

As to `C=C1/C(=C\C=C2/CCC[C@]3(C)[C@@H]([C@H](C)CCCC(C)(C)O)CC[C@@H]23)C[C@@H](O)C[C@@H]1O` [calcitriol, 1α,25-Dihydroxycholecalciferol, reference compound], the serum calcium concentration turned out to be 3.2 mmol/L.

For the origin of these results see patent publication US5663157A, “22-en-25-oxa derivatives in the vitamin D series, process for their production, pharmaceutical preparations containing these derivatives as well as their use as pharmaceutical agents” (Schering Aktiengesellschaft, priority 1992, dated 1997).
